# Laboratory results: patent US20100016343A1 (WYETH, priority 2008, published 2010)
# The chains behind the UniProt entries cited, without tags or fusion partners. Residues count along the entry.
# UniProt Q05941, 23-502: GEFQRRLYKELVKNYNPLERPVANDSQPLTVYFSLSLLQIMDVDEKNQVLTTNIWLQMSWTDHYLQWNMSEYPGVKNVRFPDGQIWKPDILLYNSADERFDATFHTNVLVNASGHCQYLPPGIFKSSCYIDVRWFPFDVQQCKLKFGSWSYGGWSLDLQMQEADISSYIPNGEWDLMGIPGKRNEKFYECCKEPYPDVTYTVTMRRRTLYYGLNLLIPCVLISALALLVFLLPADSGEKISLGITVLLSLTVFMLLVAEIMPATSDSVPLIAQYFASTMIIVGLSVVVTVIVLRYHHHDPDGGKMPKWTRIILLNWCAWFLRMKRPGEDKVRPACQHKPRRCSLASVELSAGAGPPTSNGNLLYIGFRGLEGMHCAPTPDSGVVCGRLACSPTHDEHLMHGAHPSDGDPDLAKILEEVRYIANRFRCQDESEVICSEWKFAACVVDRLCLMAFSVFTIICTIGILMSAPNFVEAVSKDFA
# Biological target: T1, rat-alpha7-nAChR (Rattus norvegicus, UniProt Q05941)
# T1 construct: expressed in transfected cells
# Test: functional FLIPR assay, alpha7 nAChR stably expressed in GH4C1 cells
# Format: cell-based
# Conditions: Alpha 7 EC50 (μM), GH4C1 cell line expressing the alpha7 nAChR, concentration-response curves
# Source text: Rat GH4C1 cells were then transfected with the rat receptor, cloned and analyzed for functional alpha7 nicotinic receptor expression employing a FLIPR assay to measure changes in intracellular calcium concentrations.
# The FLIPR system allows the measurements of real time Ca^2+-concentration changes in living cells using a Ca^2+ sensitive fluorescence dye (such as Fluo4). This instrument enables the screening for agonists and antagonists for alpha 7 nAChR channels stably expressed in GH4C1 cells.
# GH4C1 cells stably transfected with rat-alpha7-nAChR (see above) were used. These cells are poorly adherent and therefore pretreatment of flasks and plates with poly-D-lysine was carried out. Cells are grown in 150 cm^2 T-flasks, filled with 30 ml of medium at 37° C. and 5% CO2.
# EC50 and IC50 values were calculated using the IDBS XLfit4.1 software package employing a sigmoidal concentration-response (variable slope) equation:
# Y=Bottom+((Top−Bottom)/(1+((EC50/X)̂HillSlope))
# Certain compounds of the present disclosure were tested using the functional FLIPR primary screening assay employing the stable recombinant GH4C1 cell line expressing the alpha7 nAChR.
smiles,measurement,value
O=C(NCCCCN1CCCCC1)Nc1ccc(-c2ccc(F)cc2)nc1,EC50,0.03 µM
